Measured values published in PMC9029360, “Cyclooxygenase-Inhibiting Platinum(IV) Prodrugs with Potent Anticancer Activity” (Pharmaceutics, 2022).

Test system: panel of cancer cell lines
Conditions: on average across all the cancer cell lines

With “[Pt(Phen)(SSDACH)(Aspirin)(OH)](NO3)2 [compound 3]” the “fold more active than corresponding di-hydroxido platinum(IV) derivative (PHENSS(IV) or 56MESS(IV))” value was “ten-fold”.
